Test results reported in patent US4672036A, “Pure cultures of Kibdelsporangium aridum Shearer gen. nov., sp. nov. ATCC 39323 and mutants thereof” (SmithKline Beckman Corporation, priority 1985, dated 1987).

Tests used:
rumen in vitro model = rumen in vitro model (growth promotant activity); design: species or system steer; settings: for LYS (lysine): 50.0 ppm
Swine in vitro model = test: swine in vitro model (growth promotant activity); settings: 1.67 ppm

Compound	LYS (lysine) (rumen in vitro model) [% Control]	VFA (total of volatile fatty acids) (rumen in vitro model; 5.0 ppm) [% Control]	GLU (glucose) (Swine in vitro model) [% Control]	LAC (L-lactic acid) (Swine in vitro model) [% Control]
Avoparcin	97	–	–	–
CN[C@H](CC(C)C)C(=O)N[C@H]1C(=O)N[C@@H](CC(N)=O)C(=O)N[C@H]2C(=O)N[C@H]3C(=O)N[C@H](C(=O)N[C@H](C(=O)O)c4cc(O)cc(O)c4-c4cc3ccc4O)[C@H](O)c3ccc(c(Cl)c3)Oc3cc2cc(c3O[C@@H]2O[C@H](CO)[C@@H](O)[C@H](O)[C@H]2O[C@H]2C[C@](C)(N)[C@H](O)[C@H](C)O2)Oc2ccc(cc2Cl)[C@H]1O [Vancomycin, reference compound]	97	108	100	99
